# Results published in PubChem BioAssay AID588856 (National Center for Advancing Translational Sciences (NCATS), 2011).
# Where “and” joins values, the source holds several entries; their conditions need not be identical. Equal entries are not always repeated. The entries are a selection whose mix differs from that of the whole data set. Some results for these compounds are left out of this collection, so the calls shown say nothing about other tests. Calls of active or inactive are those of the source. Calls come from the whole dose curve; as a rule, active = well fitted cell-killing curve with a large enough effect; inactive = no such curve, though single readings can be large or run the other way.
# Assay: qHTS for Inhibitors of TGF-b: Cytotox Counterscreen
# Conditions: HepG2 CAGA-GFP viability, ATP luminescence, 18 h; at 46.1 µM (top of the series)
# Excerpt: TGF-b is a main component in the TGF-b signaling pathway which plays diverse roles in cellular and development pathways. TGF-b is mediated by transcription factors called "Smads". Although the Smad-dependent pathway is the primary canonical TGF-b signaling mode, TGF-b1 can also activate alternative signaling pathways, including those involving MAPK (ERK, JNK and p38). This interaction may mediate or enhance Smad-dependent responses, or can exert Smad-independent effects. The complexity of this signaling cascade allows the TGF-b superfamily to perform unique, overlapping or redundant functions. We believe that targeting the TGF-beta pathway at the Smad-transcription factor level may eliminate the consequences of disrupting the entire pathway and offer specificity without affecting other signaling pathways. Smad3 is the primary transducer of TGF-b's signals and Smad3 regulates many functions attributed to TGF-b signaling. We hypothesize that Smad3 inhibitors will selectively eliminate Smad3-specific TGF-beta signals without undesired off-target effects. We aim to identify Smad3-small molecule antagonists using a quantitative high throughput screening (qHTS) approach.
# A high-throughput assay was developed to screen the NIH Molecular Libraries Small Molecule Repository (MLSMR). This is a cell based assay, where TGF-b is tagged with GFP. This is a counterscreen that evaluates the cytotoxicity of the compounds that were screened in the primary cell-based screen (AID 588855).
# MH087449NIH Chemical Genomics Center [NCGC]
# NIH Molecular Libraries Probe Centers Network [MLPCN]
# Assay Submitter (PI): Sushil Rane, National Institute of […]
# Suspensions of trypsinized HEPG2 CAGA-GFP cells were dispensed into white, tissue culture-treated, solid 1536-well plates at 5uL/well (1000 cells/well final concentration) in DMEM medium supplemented with 1% FBS. Plates were incubated at 37 degrees C for 2 hours, after which 23 nL of compounds or DMSO were delivered to each well using a pin tool. One uL of recombinant TGF-beta in DMEM (1% FBS) was then dispensed (500 pg/mL final concentration), and plates were incubated at 37 degrees C for 18 hours. Two uL of CellTiter Glo (Promega), a luminescence-based viability reagent, was dispensed, followed by a 10 minute room temperature incubation. The plates were then measured on a PerkinElmer ViewLux plate reader for luminescence (clear filter) using a 5 second exposure. The %Activity was determined from the corrected luminescence values. Wells containing media only (no cells) were used to normalize %Activity of identified toxic compounds; media-only wells corresponded to 100%Activity (complete cell-killing), while DMSO-dosed cell controls were used to normalize 0%Activity (no toxicity).
# Concentration-response curves were fitted to the signals arising from the resulting luminescence. The concentration-effect curves were then classified based on curve quality (r2), response magnitude and degree of measured activity, and compounds were subsequently categorized based on their curve class.
row,Compound,"activity change, negative = cytotoxicity"
1,COc1cc(C(=O)NCC2(N(C)C)CCCCC2)c([N+](=O)[O-])cc1OC,inactive: -13.5%
2,CN(C)C1(CNC(=O)c2ccc(Br)cc2)CCCCC1,inactive: -20.1%
3,O=C(CBr)c1ccc(Cl)cc1,inactive: -33.2%
4,O=C(NCC1(N2CCCCC2)CCCCC1)c1cccc(Cl)c1,inactive: -8.3%
5,COc1ccc(C(=O)NCC2(N(C)C)CCCCC2)cc1Cl,inactive: -8.32%
6,COc1cccc(C(=O)NCC2(N3CCCCC3)CCCCC2)c1,inactive: 1.94%
7,COc1ccc(Cl)cc1C(=O)NCC1(N(C)C)CCCCC1,inactive: -16.6%
8,CC(C)COc1ccc(C(=O)NCC2(N(C)C)CCCCC2)cc1,inactive: -46.4%
9,O=C(OC1CN2CCC1CC2)C(CO)(c1ccccc1)c1ccccc1 (configuration not stated),inactive: -4.86%
10,COc1cccc(C(=O)NCC2(N3CCOCC3)CCCCC2)c1,inactive: -26.6%
11,CN(C)c1cccc(C(=O)NCC2(N(C)C)CCCCC2)c1,inactive: -12.6%
12,CC(C)Oc1ccc(C(=O)NCC2(N(C)C)CCCCC2)cc1,inactive: -25.7% and inactive: -13.1%
13,O=C(OCCN1CCCC1)C(O)(c1ccccc1)c1ccccc1,inactive: -4.28%
14,COc1cc(C(=O)NCC2(N(C)C)CCCCC2)cc(OC)c1OC,inactive: 7.44%
15,Cc1cccc(C(=O)NCC2(N(C)C)CCCCC2)c1,inactive: 0.355%
16,COc1ccc(Br)c(C(=O)NCC2(N3CCCCC3)CCCCC2)c1,inactive: -24.4%
17,C=C(C)C#CC(O)(C(=O)OC1CCN(C)CC1)c1ccccc1 (configuration not stated),inactive: -0.539%
18,CN1[C@@H]2CC[C@H]1CC(OC(=O)C(O)(c1ccccc1)c1ccccc1)C2 (some centres not stated),inactive: -17.8%
19,O=C(NCC1(N2CCCCC2)CCCCC1)c1cc([N+](=O)[O-])ccc1Cl,inactive: -3.63%

row,Compound,"activity change, negative = cytotoxicity"
1,CN(C)C1(CNC(=O)c2ccccc2F)CCCCC1,inactive: -15.4%
2,Cc1ccc(C(=O)NCC2(N3CCCCC3)CCCCC2)cc1,inactive: -11.9%
3,CC(C)N1C(=O)CC2(CCN(CCOC(=O)C(O)(c3ccccc3)c3ccccc3)CC2)C1=O,inactive: 2.75%
4,CN(C)C1(CNC(=O)c2cccc(Cl)c2)CCCCC1,inactive: -14.9%
5,CCN(CC)CC(C)C(C)OC(=O)C(O)(c1ccccc1)c1ccccc1 (configuration not stated),inactive: 2.81%
6,COc1cc(SC)ccc1C(=O)NCC1(N(C)C)CCCCC1,inactive: 2.36%
7,CCCCOc1ccccc1C(=O)NCC1(N(C)C)CCCCC1,inactive: -61.6%
8,CN(C)C1(CNC(=O)c2ccccc2[N+](=O)[O-])CCCCC1,inactive: -26.6%
9,Cc1ccccc1C(=O)NCC1(N2CCCCC2)CCCCC1,inactive: -0.98%
10,CN(C)C1CCCC1OC(=O)C(O)(c1ccccc1)c1ccccc1 (configuration not stated),inactive: 8.57%
11,CN(C)c1ccc(C(=O)NCC2(N(C)C)CCCCC2)cc1,inactive: 5.21%
12,Cc1cc(C(=O)NCC2(N3CCCCC3)CCCCC2)ccc1[N+](=O)[O-],inactive: -7.8%
13,CCN1CCCC(OC(=O)C2(O)c3ccccc3C=Cc3ccccc32)C1 (configuration not stated),inactive: 0.0035%
14,O=C(NCC1(N2CCCCC2)CCCCC1)c1cccc(Br)c1,inactive: -12.2%
15,COc1ccc(C(=O)NCC2(N(C)C)CCCCC2)cc1,inactive: 8.89%
16,CCOc1cccc(C(=O)NCC2(N(C)C)CCCCC2)c1,inactive: -2.27%
17,C=CCN1CCN(CCOC(=O)C(O)(c2ccccc2)c2ccccc2)CC1,inactive: 9.27%
18,O=C(NCC1(N2CCCCC2)CCCCC1)c1cc(F)c(F)cc1Cl,inactive: 4.76%
